Literature values in patent US20020065326A1, “Patient oxygenation using stabilized fluorocarbon emulsions” (priority 1992, published 2002).

Conditions: organ retention half life; prior art / nonlipophilic fluorocarbons from literature; cited from earlier work

F-dipipendine
t½: 24 days
